{
  "source": "patent US10759839B2",
  "about": "“Cell-penetrating peptide” (NEOREGEN BIOTECH, priority 2016, dated 2020)",
  "molecules": {"B1": {"name": "ICT-Myc: SEQ ID NO: 9, c-Myc sequence (SEQ ID NO: 8) linked at C-terminal of SEQ ID NO: 4; His-tagged form SEQ ID NO: 10 (protein)", "chain": "RKKRRQRRCFRCRQAGHWISDCRLKSKVKRRTHNVLERQRRNELKRSFFALRDQIPELENNEKAPKVVILKKATAYILSVQAEEQKLISEEDLLRKRREQLKHKLEQLRNSCA", "modifications": "ICT-Myc"}},
  "system": "fibroblast NIH3T3 cell line",
  "experiment": "Cell growth promotion effect of purified ICT-Myc peptide (FIG. 12)",
  "type": "cell-based",
  "protocol": "FIG. 12 is a graph showing results of confirming a growth promotion effect of the ICT-Myc peptide purified in a cell group treated with an ICT-Myc peptide.\nAs a result, it could be confirmed that about 60% growth promotion was induced in the cells, in particular, at a concentration of 7.5 μM (FIG. 12).",
  "data": [
    {"molecule": "B1", "values": [
      {"measurement": "growth promotion", "setting": "7.5 μM, NIH3T3", "result": "about 60%"},
      {"measurement": "growth promotion effect, dependence on concentration", "setting": "NIH3T3, for each concentration", "result": "in proportion to the concentration"}
    ]}
  ]
}
